Data from patent US6969702B2, “Compounds and methods for increasing neurogenesis” (priority 2002, dated 2005).

How the values were obtained:
[1] = tested on: NFAT-Luciferace reporter (Ca^2+); conditions: Table 4; 15 nM; 24 hours after induction
[2] = tested on: mouse adult neural stem cells; test: ATP-assay: proliferation (ATP levels) of neurosphere-derived cells; conditions: Table 4; 100 nM

## CC(C)C[C@H](NC(=O)CNC(=O)[C@H](C)NC(=O)[C@H](CC(C)C)NC(=O)[C@H](CCCNC(=N)N)NC(=O)[C@H](Cc1c[nH]cn1)NC(=O)[C@@H](NC(=O)[C@@H](N)C(C)C)[C@@H](C)O)C(=O)N[C@@H](CC(C)C)C(=O)N[C@@H](CO)C(=O)N[C@@H](CCCNC(=N)N)C(=O)N[C@@H](CO)C(=O)NCC(=O)NCC(=O)N[C@H](C(=O)N[C@H](C(=O)N[C@@H](CCCCN)C(=O)N[C@@H](CC(N)=O)C(=O)N[C@@H](CC(N)=O)C(=O)N[C@@H](Cc1ccccc1)C(=O)N[C@H](C(=O)N1CCC[C@H]1C(=O)N[C@H](C(=O)N[C@@H](CC(N)=O)C(=O)N[C@H](C(=O)NCC(=O)N[C@@H](CO)C(=O)N[C@@H](CCCCN)C(=O)N[C@@H](C)C(=O)N[C@@H](Cc1ccccc1)C(N)=O)C(C)C)[C@@H](C)O)C(C)C)C(C)C)C(C)C [CGRP (8-37)]
[1]
  NFAT Luciferace units: 28.3 ± 1.1 Luciferace units
[2]
  ATP (nM ATP/well): 10.4 ± 0.5 nM ATP/well
